How the values were obtained:
human Nav1.5 = human Nav1.5 (Homo sapiens, UniProt Q14524); assay: PatchXpress sodium current measurement, inactivated state block, Nav1.5; format: cell-based; details: determined by PatchXpress measurement, HEK 293 cells
Description: (§1) Cell Based Assays for Nav 1.7 and Nav 1.5 Activity
(§2) Compounds were tested on human Nav1.7 and Nav1.5 channels stably expressed in HEK 293 cells.
(§3) Sodium Current Measurements on the PatchXpress 7000:
(§4) To measure inactivated state block of sodium channels, test compounds were characterized in an automated PatchXpress® assay (Molecular Devices) using a double-pulse protocol on human Nav1.7 and Nav1.5 channels stably expressed in HEK 293 cells. Cells were held at a potential 20 mV negative to the potential at which ˜50% of the channels are inactivated. A 8000 ms pre-pulse 7 mV positive to the potential at which ˜50% of the channels are inactivated was given followed by a hyperpolarizing 2 ms pulse to −120 mV and a 20 ms test pulse to −20 mV. The protocol was applied to cells in the absence, presence of compound and after washout. The temperature of PatchXpress® instruments was maintained at 22° C. The following recording solutions were used. Internal solution (mM): 30 CsCl, 5 HEPES, 10 EGTA, 120 CsF, 5 NaF, 2 MgCl2, pH 7.3 with CsOH. External solution (mM): 120 NMDG, 40 NaCl, 1 KCl, 0.5 MgCl2, 5 HEPES, 2.7 CaCl2, pH 7.5 with NMDG-OH. Estimated IC50 values were calculated based on at least two compound concentrations tested. […] IC50 values were determined by fitting to the Hill equation.

Amino acid sequences for entries named in this document (tags omitted).
UniProt Q14524, whole entry: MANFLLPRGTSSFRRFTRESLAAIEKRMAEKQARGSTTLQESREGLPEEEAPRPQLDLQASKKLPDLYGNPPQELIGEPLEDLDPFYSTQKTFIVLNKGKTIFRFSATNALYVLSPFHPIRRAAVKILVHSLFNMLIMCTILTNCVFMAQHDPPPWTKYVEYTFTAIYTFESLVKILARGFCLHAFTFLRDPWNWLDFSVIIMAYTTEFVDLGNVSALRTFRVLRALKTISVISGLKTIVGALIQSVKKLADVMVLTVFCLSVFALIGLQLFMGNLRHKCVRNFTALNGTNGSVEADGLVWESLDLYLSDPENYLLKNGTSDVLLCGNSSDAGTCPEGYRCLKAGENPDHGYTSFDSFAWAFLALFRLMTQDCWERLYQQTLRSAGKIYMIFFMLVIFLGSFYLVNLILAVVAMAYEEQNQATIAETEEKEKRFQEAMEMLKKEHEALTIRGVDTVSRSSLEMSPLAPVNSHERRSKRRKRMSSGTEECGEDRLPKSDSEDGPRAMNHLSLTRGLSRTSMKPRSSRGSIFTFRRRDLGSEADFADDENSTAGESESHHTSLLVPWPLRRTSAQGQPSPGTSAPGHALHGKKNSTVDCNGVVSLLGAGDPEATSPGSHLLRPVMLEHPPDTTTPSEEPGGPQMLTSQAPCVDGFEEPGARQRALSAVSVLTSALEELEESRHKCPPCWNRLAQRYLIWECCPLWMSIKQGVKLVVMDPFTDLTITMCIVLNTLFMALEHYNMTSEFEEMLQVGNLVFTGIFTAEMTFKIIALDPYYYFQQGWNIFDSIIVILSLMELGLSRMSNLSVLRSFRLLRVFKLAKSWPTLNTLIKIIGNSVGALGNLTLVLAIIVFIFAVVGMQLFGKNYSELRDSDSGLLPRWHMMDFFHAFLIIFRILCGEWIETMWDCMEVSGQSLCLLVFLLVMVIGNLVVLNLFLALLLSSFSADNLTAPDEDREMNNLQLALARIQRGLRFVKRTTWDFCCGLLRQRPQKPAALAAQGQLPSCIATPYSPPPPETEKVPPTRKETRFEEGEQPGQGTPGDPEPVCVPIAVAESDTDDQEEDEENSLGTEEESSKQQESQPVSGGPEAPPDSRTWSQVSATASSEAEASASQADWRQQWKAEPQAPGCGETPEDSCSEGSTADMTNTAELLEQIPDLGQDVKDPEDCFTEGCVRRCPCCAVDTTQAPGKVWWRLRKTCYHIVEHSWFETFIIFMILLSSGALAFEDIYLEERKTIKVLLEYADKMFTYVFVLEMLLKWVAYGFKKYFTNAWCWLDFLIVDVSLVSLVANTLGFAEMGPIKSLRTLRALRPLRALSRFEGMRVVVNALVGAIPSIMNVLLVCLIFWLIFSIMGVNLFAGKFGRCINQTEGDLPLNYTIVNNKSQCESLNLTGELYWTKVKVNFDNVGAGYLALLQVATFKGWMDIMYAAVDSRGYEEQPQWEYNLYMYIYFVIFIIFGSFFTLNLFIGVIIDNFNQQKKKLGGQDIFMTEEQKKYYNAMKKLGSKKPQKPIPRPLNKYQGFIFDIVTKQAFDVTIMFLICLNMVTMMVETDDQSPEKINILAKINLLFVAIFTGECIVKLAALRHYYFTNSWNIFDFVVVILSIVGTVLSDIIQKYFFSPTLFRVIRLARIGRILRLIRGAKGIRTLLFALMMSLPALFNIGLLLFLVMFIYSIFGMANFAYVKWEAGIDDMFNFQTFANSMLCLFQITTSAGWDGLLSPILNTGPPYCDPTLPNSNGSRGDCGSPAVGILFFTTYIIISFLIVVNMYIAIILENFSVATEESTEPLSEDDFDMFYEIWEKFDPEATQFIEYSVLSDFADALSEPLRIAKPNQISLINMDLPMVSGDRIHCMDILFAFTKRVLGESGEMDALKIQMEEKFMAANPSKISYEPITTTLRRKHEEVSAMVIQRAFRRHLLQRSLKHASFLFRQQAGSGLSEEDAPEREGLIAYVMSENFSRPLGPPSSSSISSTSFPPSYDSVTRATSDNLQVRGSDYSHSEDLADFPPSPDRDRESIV
UniProt Q15858, whole entry: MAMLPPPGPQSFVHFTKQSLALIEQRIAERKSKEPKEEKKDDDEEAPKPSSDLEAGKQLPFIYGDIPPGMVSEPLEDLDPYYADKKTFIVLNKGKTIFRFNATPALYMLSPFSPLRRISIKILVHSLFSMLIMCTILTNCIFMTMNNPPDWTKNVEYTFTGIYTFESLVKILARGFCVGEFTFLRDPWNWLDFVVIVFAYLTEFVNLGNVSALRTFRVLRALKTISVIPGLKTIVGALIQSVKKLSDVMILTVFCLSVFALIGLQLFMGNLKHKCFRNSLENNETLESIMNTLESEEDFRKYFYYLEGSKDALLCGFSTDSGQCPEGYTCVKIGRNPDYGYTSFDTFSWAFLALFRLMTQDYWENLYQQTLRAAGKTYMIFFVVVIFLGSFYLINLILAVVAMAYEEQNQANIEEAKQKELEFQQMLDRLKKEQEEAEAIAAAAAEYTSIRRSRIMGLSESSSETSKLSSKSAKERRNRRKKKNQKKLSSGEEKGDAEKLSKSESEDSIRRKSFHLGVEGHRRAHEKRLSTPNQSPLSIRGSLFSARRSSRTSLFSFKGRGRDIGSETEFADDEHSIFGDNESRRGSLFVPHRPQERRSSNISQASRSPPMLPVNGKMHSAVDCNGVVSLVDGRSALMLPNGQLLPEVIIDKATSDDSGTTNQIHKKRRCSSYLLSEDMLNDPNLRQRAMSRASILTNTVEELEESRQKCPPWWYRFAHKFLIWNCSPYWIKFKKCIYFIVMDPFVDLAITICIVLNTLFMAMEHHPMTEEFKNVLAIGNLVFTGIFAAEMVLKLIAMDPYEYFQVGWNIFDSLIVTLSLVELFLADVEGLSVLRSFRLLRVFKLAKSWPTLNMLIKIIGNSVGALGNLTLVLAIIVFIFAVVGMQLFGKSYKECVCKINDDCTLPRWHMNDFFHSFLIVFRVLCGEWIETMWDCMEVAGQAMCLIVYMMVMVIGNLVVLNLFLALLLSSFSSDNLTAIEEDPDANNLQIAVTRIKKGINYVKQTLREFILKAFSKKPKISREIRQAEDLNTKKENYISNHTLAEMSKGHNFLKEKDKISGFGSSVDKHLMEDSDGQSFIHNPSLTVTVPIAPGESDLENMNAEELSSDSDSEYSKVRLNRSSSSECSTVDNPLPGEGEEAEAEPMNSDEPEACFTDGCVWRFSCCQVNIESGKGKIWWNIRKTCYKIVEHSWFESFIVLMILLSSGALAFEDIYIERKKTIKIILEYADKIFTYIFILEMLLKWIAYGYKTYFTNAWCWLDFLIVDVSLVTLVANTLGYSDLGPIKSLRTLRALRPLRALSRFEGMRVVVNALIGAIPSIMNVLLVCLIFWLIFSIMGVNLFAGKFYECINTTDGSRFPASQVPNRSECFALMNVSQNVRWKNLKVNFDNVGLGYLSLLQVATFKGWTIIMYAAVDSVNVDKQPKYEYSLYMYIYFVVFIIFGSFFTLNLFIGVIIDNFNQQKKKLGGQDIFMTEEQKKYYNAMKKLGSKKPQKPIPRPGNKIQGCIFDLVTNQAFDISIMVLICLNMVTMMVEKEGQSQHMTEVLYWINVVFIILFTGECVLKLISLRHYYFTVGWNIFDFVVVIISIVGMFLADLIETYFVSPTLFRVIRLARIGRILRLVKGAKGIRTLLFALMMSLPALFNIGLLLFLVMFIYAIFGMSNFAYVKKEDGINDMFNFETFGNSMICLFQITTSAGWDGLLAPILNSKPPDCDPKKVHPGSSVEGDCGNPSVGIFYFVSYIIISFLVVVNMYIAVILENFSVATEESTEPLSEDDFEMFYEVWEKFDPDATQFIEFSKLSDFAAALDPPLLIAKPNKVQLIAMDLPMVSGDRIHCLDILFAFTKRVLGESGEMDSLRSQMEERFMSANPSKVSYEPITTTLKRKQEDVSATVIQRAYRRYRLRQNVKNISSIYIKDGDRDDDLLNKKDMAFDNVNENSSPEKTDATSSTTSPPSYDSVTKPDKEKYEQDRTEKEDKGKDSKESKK

human Nav1.7 = human Nav1.7 (Homo sapiens, UniProt Q15858); assay: PatchXpress sodium current measurement, inactivated state block, Nav1.7; format: cell-based; details: read-out: potency for the Nav 1.7 sodium ion channel (1.7=), channels stably expressed in HEK 293 cells, double-pulse protocol, 22° C.
Description: as §1, §2, §3, §4

SMILES: C[C@H](c1ccccc1C1=CCCNC1)n1c(=O)oc2cc(S(=O)(=O)Nc3cccc(F)n3)c(F)cc21
- ratio of Nav 1.5:Nav 1.7 potency (human Nav1.5): 1475
- IC50 (human Nav1.7): 52 nM
